Experimental data reported in US12558322B2, “Control method of local release for target compounds by using patterning hydrogel to nanoporous membrane” (KNU-Industry Cooperation Foundation, priority 2018, dated 2026).

What was measured:
MG-63 cells [1] = experiment: Osteogenic differentiation of MG-63 cells, ARS staining of calcium deposits; type: cell-based, human; details: 6 days
Description: (§1) To evaluate the effect of osteogenic differentiation, including morphology, on the localized and controlled release of BMP-2, human osteoblast-like MG-63 cells (American Type Culture Collection, Rockville, MD, USA) were cultured onto the GelMA hydrogel micropatterned SNM for 6 days.
(§2) In particular, before the pattering process, the SNM was fixed onto the bottom of the cell culture dish using half-cured PDMS solution and dried for preventing the floating of SNM in the culture media. The cell density was 1×10^6 cells/mL, and 100 μL cells were seeded onto the BMP-2 (2000 ng/ml)-immobilized GelMA hydrogel micropatterned SNM. In addition, MG-63 cells were simultaneously cultured on SNM without BMP-2 as the control group. The cells were cultured in cell media [10% (w/w) Dulbecco's modified Eagle's medium (DMEM)] (Gibco, CA, USA) supplemented with 1% (w/w) fetal bovine serum (FBS) (Gibco) and 1% (w/w) penicillin/streptomycin (Gibco) in a humidified atmosphere containing 5% CO2 at 37° C.
Osteogenic differentiation was evaluated by staining the calcium deposits using the ARS staining kit (pH 4.1-4.3; Sigma-Aldrich). First, the culture medium was removed, and the cells were gently washed thrice with PBS. Next, the cells were fixed with 4% (w/v) formaldehyde for 15 min at room temperature. […]

MG-63 cells [2] = experiment: Actin filament staining of MG-63 cells; type: cell-based, human; details: 2000 ng/mL BMP-2 in 2.5% (w/v) GelMA micropattern, 6 days
Description: as §1, §2
After 6 days, the actin filaments were stained with Alexa Fluor 568 phalloidin fluorescent dye (Invitrogen, Eugene, OR, USA) to determine the cytoskeletal organization in MG-63 cells. Image-iT™ FX signal enhancer was used to enhance the signal-to-noise ratio of fluorescently labeled cells, and fluorescent images were acquired and processed using an Axiovert 200 inverted microscope.

BMP-2: bone morphogenetic protein (30 kDa), 2000 ng/mL immobilized in GelMA hydrogel micropattern
calcium deposits formed by MG-63 cells versus control group (MG-63 cells [1]; 2000 ng/mL BMP-2 in 2.5% (w/v) GelMA micropattern): significantly higher
average calcium deposition area (ARS staining, Image J) (MG-63 cells [1]; 2000 ng/mL BMP-2 released from 2.5% (w/v) GelMA hydrogel micropattern on SNM): approximately 32 mm^2
cytoskeleton (actin network) of MG-63 cells (MG-63 cells [2]): relatively rich and dense actin network
